Test results: ChEMBL document CHEMBL1145777 (J Med Chem, 2003)

Sequences of proteins named here, by UniProt entry; tags and fusion partners are left off. A change or cut given only in a name is not applied to a line headed by its entry.
UniProt P41145: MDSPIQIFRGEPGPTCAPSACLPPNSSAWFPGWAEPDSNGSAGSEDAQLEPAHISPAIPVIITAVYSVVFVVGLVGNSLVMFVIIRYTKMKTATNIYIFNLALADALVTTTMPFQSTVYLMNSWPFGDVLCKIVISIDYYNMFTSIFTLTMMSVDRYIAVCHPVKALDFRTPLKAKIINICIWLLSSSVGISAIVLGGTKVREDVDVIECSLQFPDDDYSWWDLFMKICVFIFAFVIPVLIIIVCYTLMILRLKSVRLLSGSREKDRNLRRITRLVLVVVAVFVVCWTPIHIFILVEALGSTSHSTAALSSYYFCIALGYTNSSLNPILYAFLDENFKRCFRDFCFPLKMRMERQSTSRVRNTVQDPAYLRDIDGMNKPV

Target: Kappa-type opioid receptor (Homo sapiens, UniProt P41145)
Assay: Incorporation of [35S]GTP-gamma-S, into CHO membranes expressing human Opioid receptor kappa 1

## CN(C(=O)Cc1ccc(Cl)c(Cl)c1)C1CCC2(CCCO2)CC1N1CCCC1 (stereo unspecified)
  EC50: 18 nM
